The results in this text go back to PubChem BioAssay AID1789 (The Scripps Research Institute Molecular Screening Center, 2009).

Structures are written as SMILES. This is a selection; strong and weak results do not stand in their true shares. Activity calls are given as the source filed them.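 The calls were made as follows: active = inhibition above the screen-wide mean plus 3 SD, computed separately per campaign (cut at about 16% in these data); inactive = the rest.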

The test relates to Heat shock protein HSP 90 (rabbit reticulocyte lysate; luciferase refolding). Nature of the test: HSP90 inhibitors, primary screen, cell lysate, luminescence (AID 1789).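 Also: 0% = DMSO wells and 100% = 60 µM geldanamycin wells; inhibitors lower the luminescence because luciferase stays unfolded.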 The note with it: 3 h, at 5.6 µM, hits give high values.
Consider `O=C(NCC1(N2CCCCC2)CCCCC1)c1ccc(OC(F)F)cc1`, for which the inhibition (usually the relative decrease from the control value, in per cent) was inactive: -1.97%.
As for `N#CC1(Nc2ccccc2)CCN(CCc2ccccc2)CC1`, the figure is inactive: -1.13%; as for `CCN1CCC(Nc2ccc(Cl)cc2)CC1`, inactive: -2.93%; as for `O=C(NCC1(N2CCCCC2)CCCCC1)c1cccc([N+](=O)[O-])c1`, inactive: -0.41%.
Turning to `O=C(NCC1(N2CCCCC2)CCCCC1)c1cccc(C(F)(F)F)c1`, the inhibition is inactive: -3.15%.
For the compound `COc1cc(C(=O)NCC2(N3CCCCC3)CCCCC2)ccc1OC(F)F`, the inhibition is inactive: -5.42%.
On to `O=C(NCC1(N2CCOCC2)CCCCC1)c1cc(=O)[nH]c2ccccc12`, for which the inhibition is inactive: -0.68%.
As for `CN1CCN(CCOC(=O)C(O)(c2ccccc2)c2ccccc2)CC1`, the figure is inactive: 2.25%; as for `COc1ccc(NC2CCN(C(=O)OC(C)(C)C)CC2)cc1`, inactive: -4.72%.
As for `CC(C)c1ccc(NC2CCN(C(=O)OC(C)(C)C)CC2)cc1`, the figure is inactive: -0.3%; as for `CN(C)c1cccc(C(=O)NCC2(N3CCCCC3)CCCCC2)c1`, inactive: -0.12%; as for `COc1ccc(CN(CCCl)CCCl)cc1Cl`, inactive: -3.27%.
The result for `COc1cc(OC)c(C(=O)NCC2(N(C)C)CCCCC2)cc1OC` reads inactive: -4.87%.
As for `CN1CCC(Nc2cccc(F)c2)CC1`, the inhibition was inactive: -0.98%.
Regarding `CCCOc1ccc(C(=O)NCC2(N(C)C)CCCCC2)cc1OC`, the inhibition is inactive: 3.06%.
As for `COc1ccc(C(=O)NCC2(N3CCCCC3)CCCCC2)c(OC)c1OC`, the figure is inactive: -0.75%.
As for `CC(C)(C)OC(=O)N1CCC(N(C(=O)c2ccccc2)c2ccc(F)cc2)CC1`, the figure is inactive: -2.57%.
The result for `COc1ccc(C(=O)NCC2(N3CCCCC3)CCCCC2)cc1` reads inactive: 3.79%; that for `O=C(NCC1(N2CCCCC2)CCCCC1)c1ccc(=O)[nH]c1`, inactive: -0.33%; that for `CSc1ccccc1C(=O)NCC1(N2CCCCC2)CCCCC1`, inactive: 3.58%.
`Cc1cc(C)cc(N(C(=O)c2ccccc2)C2CCN(C(=O)OC(C)(C)C)CC2)c1`: the inhibition was inactive: 3.63%.
The result for `O=C(NCC1(N2CCOCC2)CCCCC1)c1cc2ccccc2o1` reads inactive: -3.5%; that for `N#CC1(Nc2ccccc2)CCN(Cc2ccccc2)CC1`, inactive: -1.05%.
Regarding `O=C(OC1CN2CCC1CC2)C1c2ccccc2Oc2ccccc21` (centres undefined), the inhibition was inactive: 3.33%.
The result for `CCOC(=O)N1CCC(Nc2ccc(OC)cc2)CC1` reads inactive: 0.26%.
The result for `CCOc1ccc(C)cc1CN(CCCl)CCCl` reads inactive: -0.51%; that for `COc1ccc(NC2CCN(CCc3ccccc3)CC2)c(OC)c1`, inactive: -4.35%; that for `CCOC(=O)N1CCC(Nc2ccc(F)cc2)CC1`, inactive: 6.74%.
As for `O=C(NCC1(N2CCCCC2)CCCCC1)c1ccc(F)cc1`, the figure is inactive: -4.81%; as for `Cc1ccc(OCC(C)C)c(CN(CCCl)CCCl)c1`, inactive: 0.75%.
`CCOC(=O)N1CCC(Nc2cccc(C)c2)CC1`: the inhibition is inactive: 1.46%.
The result for `COc1cc(C(=O)NCC2(N(C)C)CCCCC2)ccc1OC(F)F` reads inactive: 0.85%; that for `COc1cc(OC)cc(C(=O)NCC2(N3CCCCC3)CCCCC2)c1`, inactive: 5.21%; that for `CCN1CCC(Nc2cccc(F)c2)CC1`, inactive: 3.3%.
`CN(C)c1ccc(C(=O)NCC2(N3CCCCC3)CCCCC2)cc1`: the inhibition is inactive: -2.77%.
The result for `CN1CCC(Nc2ccc(F)c(Cl)c2)CC1` reads inactive: -1.96%; that for `CCOc1ncccc1C(=O)NCC1(N2CCOCC2)CCCCC1`, inactive: 2.94%.
As for `O=C(O)C1(Nc2ccccc2)CCN(Cc2ccccc2)CC1`, the figure is inactive: -1.8%; as for `CC(C)(C)OC(=O)N1CCC(Nc2ccccc2)CC1`, inactive: 1.37%; as for `CCCOc1ccc(C(=O)NCC2(N(C)C)CCCCC2)cc1`, inactive: -0.18%.
As for `COc1cc(OC)cc(C(=O)NCC2(N3CCOCC3)CCCCC2)c1`, the figure is inactive: 4.78%; as for `COc1cccc(C(=O)N(c2cc(C)cc(C)c2)C2CCN(C(=O)OC(C)(C)C)CC2)c1`, inactive: 0.49%.
In the case of `CCC(CO)(C(=O)OC1CN2CCC1CC2)c1ccccc1` (centres undefined), the inhibition is inactive: -2.36%.
As for `CN1CCC(Nc2ccc(Cl)cc2)CC1`, the figure is inactive: -6.24%.
As for `CCCOc1ccc(C)cc1CN(CCCl)CCCl`, the figure is inactive: -3.34%; as for `COc1ccc(C(=O)NCC2(N3CCOCC3)CCCCC2)cc1OC`, inactive: -0.94%.
As for `CCOC(=O)N1CCC(Nc2ccc(C)cc2)CC1`, the figure is inactive: -2.9%; as for `N/C(=N\O)c1c(N)no[n+]1[O-]`, inactive: 8.2%; as for `O=C(OC1CN2CCC1CC2)C1c2ccccc2C=Cc2ccccc21` (centres undefined), inactive: 3.73%.
`N#Cc1ccc(C(=O)NCC2(N3CCCCC3)CCCCC2)cc1`: the inhibition is inactive: 9.35%.
As for `CC(C)(C)OC(=O)N1CCC(N(C(=O)c2ccccc2)c2ccc(Cl)cc2)CC1`, the figure is inactive: 8.83%; as for `CN(C)C1(CNC(=O)c2cccc(C#N)c2)CCCCC1`, inactive: 0.43%.
As for `CCCN1CCC(Nc2cc(OC)cc(OC)c2)CC1`, the figure is inactive: -2.66%.
The result for `c1ccc(CN2CCC(Nc3ccccc3)CC2)cc1` reads inactive: -0.48%.
